Rows were chosen to be rich in hits. Some 13% of all compounds tested hit in one or more screens of this group.
G9a inh = blocks human histone lysine methyltransferase G9a. 350,000 tested, 8.8% active. G9a H3K9 monomethylation, AlphaScreen, 2 h. Q96KQ7. AID 504332. Potency, µM (top dose mostly 102 µM), inactives show top-dose activity, negative = inhibition, usual class: inhibitors; note: potency is the fitted concentration of half-maximal effect; % is set by controls: 0 for no effect and ±100 for the full control effect; nearly all actives have a fitted effect of over 75% in size
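Signal arises when biotinylated H3K9 peptide, once monomethylated, bridges streptavidin donor and antibody-captured acceptor beads. Enzyme at 20 nM was preincubated 15 min with test compounds; peptide 500 nM and SAM 20 uM then reacted for 2 h.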
LMNA splice mod = LMNA splicing modulation | HeLa LMNA splicing GFP/RFP minigene ratio, 48 h | Potency, µM (titrated, usually from 46.1 µM), for inactives: at the top dose ratio change, negative = inhibition, hits mostly inhibitors | 200,000 tested, 0.01% active | AID 1487; active = well fitted inhibition curve with a large enough effect in the signal ratio, with a control signal flat, not every such curve was filed as active; inconclusive = small, poorly fitted or top-dose-only effect, or effect the other way, or a change in a side signal; the % refers to the signal ratio; note: potency is the fitted concentration of half-maximal effect; % is set by controls: 0 for no effect and ±100 for the full control effect
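S3 HeLa cells stably expressing lamin A-EGFP splicing minigene plus DsRed2, 600 cells/well, 48 h compound exposure at 37C. Laser-scanning cytometry; analysed as GFP (500-530 nm)/RFP (575-640 nm) total intensity ratio; 0.5% DMSO vehicle.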
miR-21 reporter = raises the signal of a miR-21 reporter | Potency, µM (doses to about 38.3 µM), for inactives: top-dose reporter change, positive = more light | HeLa miR-21 FLuc reporter, luciferase, 48 h | AID 2288 | 340,000 tested, under 10 active; active = well fitted rising curve with a large enough effect; inconclusive = small, poorly fitted or top-dose-only effect; inactive = no such curve, though single readings can be large or run the other way;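 also: % of control where 0% means no effect; miR-21 action dims this reporter so a rising signal means less miR-21 action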
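Luminescence from a firefly luciferase reporter carrying a miR-21 binding site downstream, stably expressed under a CMV promoter in HeLa cells that make miR-21 endogenously, reports miRNA modulation after 48 h compound exposure up to approximately 40uM final.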
ALDH1A1 block = blocks purified human ALDH1A1 activity | P00352 | Purified ALDH1A1, NADH fluorescence, propionaldehyde substrate | Potency, µM (titrated, usually from 75.3 µM), without a hit: top-dose activity, negative = inhibition, actives largely listed as inhibitors | 220,000 tested, 7.3% active; active = well fitted inhibition curve with a large enough effect, not every such curve was filed as active; inconclusive = small, poorly fitted or top-dose-only effect, or another doubt; inactive = no such curve, though single readings can be large or run the other way;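 note: potency is the fitted concentration of half-maximal effect; plate controls were no enzyme wells and a reference inhibitor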
JMJD2E inh = blocks human JMJD2E demethylase activity | JMJD2E catalytic domain, FDH-coupled NADH fluorescence (FDH is formaldehyde dehydrogenase) | 230,000 tested, 1.6% active | B2RXH2 | Potency, µM (top dose mostly 57.1 µM), for inactives: at the top dose activity change, negative = inhibition, actives largely listed as inhibitors; active = well fitted inhibition curve with a large enough effect, not every such curve was filed as active; inconclusive = small, poorly fitted or top-dose-only effect, or another doubt; inactive = no such curve, though single readings can be large or run the other way;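 note: potency is the fitted concentration of half-maximal effect; 0% = wells with enzyme and -100% = buffer wells without enzyme; nearly all actives have a fitted effect of over 50% in size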
Sfp inh = inhibitors of Bacillus subtilis Sfp phosphopantetheinyl transferase | Biochemical Sfp PPTase activity, qHTS | AID 1490 | Potency, µM, for the others: max response, negative = inhibition, hits mostly inhibitors | actives 3.5% (n = 310,000) | Q9F4F7; active = well fitted inhibition curve with a large enough effect; inconclusive = small, poorly fitted or top-dose-only effect, or another doubt; inactive = no such curve, though single readings can be large or run the other way;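 also: the enzyme is Sfp with the accession as filed and its product quenches rhodamine fluorescence; potency is read from the fitted curve at half-maximal effect; 0% = enzyme reaction without inhibitor and -100% = no enzyme wells; top concentration of the series not given in the record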
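Reaction rates are the 30-min fluorescence difference (ex 525, em 598 nm) in wells containing 15 nM Sfp, 5 uM rhodamine-CoA and 12.5 uM BHQ-2-YbbR at pH 7.6 with 10 mM MgCl2.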
An asterisk follows results filed as active; ? = inconclusive; nt = not tested or not shown; [ ] = dose if it differs, or a comment. Unless noted, calls come from the whole dose curve; as a rule, active = well fitted curve in the direction sought with a large enough effect; inconclusive = small, poorly fitted or top-dose-only effect, or another doubt; inactive = no such curve, though single readings can be large; an effect the other way counts as inactive or inconclusive.

SMILES	G9a inh	JMJD2E inh	Sfp inh	miR-21 reporter	LMNA splice mod	ALDH1A1 block
Cc1ccc(S(=O)(=O)Nc2cc(S(=O)(=O)N3CCCCC3)ccc2N2CCOCC2)cc1	?	-12%	18%	-2%	nt	13µM*
O=C(CCCOc1ccccc1)Nc1cc(S(=O)(=O)N2CCOCC2)ccc1N1CCOCC1	7%[12.7 µM]	nt	nt	nt	nt	nt
Cc1ccc(OCCCC(=O)Nc2cc(S(=O)(=O)N3CCOCC3)ccc2N2CCOCC2)cc1	56µM*	nt	nt	nt	nt	nt
CCN(CC)S(=O)(=O)c1ccc(N2CCOCC2)c(NS(=O)(=O)c2ccc(C)c(C)c2)c1	-4%[59 µM]	-6%	14%	-6%	-6%	0.89µM*
CCOC(=O)c1[nH]c2ccccc2c1NC(=O)c1cc(OCC)c(OCC)c(OCC)c1	-11%[59 µM]	nt	nt	-3%	nt	nt
CCC1CCc2c(sc(NC(=O)C3c4ccccc4Oc4ccccc43)c2C(=O)OC)C1 (configuration not stated)	-39%[59 µM]	nt	nt	-12%	nt	nt
CN1CCN(Cc2cccc3ncccc23)CC1CCO (configuration not stated)	16%	nt	-2%	-3%	nt	nt
CCOCCCNC(=O)C1CCCN(c2ncnc3onc(C)c23)C1 (configuration not stated)	-9%[59 µM]	nt	nt	4%	-2%[46 µM]	nt
CCCCCCCC/C=C\CCCCCCCC(=O)O	28%[59 µM]	6%	19%	3%	?	-15%
CCCCCCCCC/C=C/CC1CC(=O)OC1=O (configuration not stated)	nt	nt	nt	nt	nt	28µM*
CCOc1ccc(CCNC(=O)Cn2c(=O)c3cccn3c3cccnc32)cc1	3%[59 µM]	nt	-9%	-2%	nt	nt
CC(C)=CCC/C(C)=C/CO	22%[59 µM]	-17%	23%	nt	5%	4%[13.5 µM]
CC(C)C(=O)NCC(c1ccc2c(c1)OCO2)N1CCN(c2ccccc2F)CC1 (configuration not stated)	-3%[59 µM]	nt	nt	2%	0%[46 µM]	nt
CCOc1ccc(NC(=O)C(CC(=O)O)Cc2ccc(C)cc2)cc1 (configuration not stated)	nt	nt	13%	-4%	nt	nt
Cn1cc(/C=N/NC(=O)COc2ccccc2[N+](=O)[O-])c2ccccc21	11%[59 µM]	-1%	35µM*	-46%	-12%	-19%
Cc1cccc(OCC(=O)N/N=C\c2cc3c(cc2[N+](=O)[O-])OCO3)c1C	-22%	6%	25µM*	-7%	0%	7.9µM*
O=C(COc1ccccc1[N+](=O)[O-])N/N=C/C=C/c1ccco1	40µM*	-7%	50µM*	-32%	10%	?
Cc1ccc(OCC(=O)N/N=C/C=C/c2ccco2)cc1	-23%[59 µM]	-7%	35µM*	0%	6%	?
COc1ccccc1OCC(=O)N/N=C/C=C/c1ccc([N+](=O)[O-])o1	-13%[59 µM]	-4%	0%	28%	?	-7%
C=CCNC(=O)N1CCC(n2nccc2NC(=O)CCCc2ccccc2)CC1	nt	nt	10%	2%	nt	nt

Profiles from above. Order of screens: G9a inh | JMJD2E inh | Sfp inh | miR-21 reporter | LMNA splice mod | ALDH1A1 block
Profile of Cc1ccc(OCC(=O)N/N=C/C=C/c2ccco2)cc1 → -23%[59 µM] | -7% | 35µM* | 0% | 6% | ?
Profile of O=C(COc1ccccc1[N+](=O)[O-])N/N=C/C=C/c1ccco1 → 40µM* | -7% | 50µM* | -32% | 10% | ?

Records listed so far that bear a hit mark in G9a inh:
SMILES	G9a inh	JMJD2E inh	Sfp inh	miR-21 reporter	LMNA splice mod	ALDH1A1 block
Cc1ccc(OCCCC(=O)Nc2cc(S(=O)(=O)N3CCOCC3)ccc2N2CCOCC2)cc1	56µM*	nt	nt	nt	nt	nt
O=C(COc1ccccc1[N+](=O)[O-])N/N=C/C=C/c1ccco1	40µM*	-7%	50µM*	-32%	10%	?

Next part:
SMILES	G9a inh	JMJD2E inh	Sfp inh	miR-21 reporter	LMNA splice mod	ALDH1A1 block
CCc1ccc(CN(C)C(=O)C2CCC(=O)N(CC3CCCCC3)C2)cc1 (configuration not stated)	45%	nt	5%	-2%	nt	nt
CC(/C=C1\SC(=S)N(NC(=O)c2ccccc2C)C1=O)=C\c1ccccc1	28µM*	-5%	3%	-11%	?	?
CC(/C=C1\SC(=S)N(NC(=O)c2ccncc2)C1=O)=C\c1ccccc1	?	-20%	45µM*	-2%	nt	nt
CC(/C=C1\SC(=S)N(NC(=O)c2ccc(C)cc2)C1=O)=C\c1ccccc1	?	2%	-8%	-6%	6%	-10%
CC(/C=C1\SC(=S)N(c2ccc(C(=O)O)cc2)C1=O)=C\c1ccccc1	32µM*	-2%	-13%	-1%	nt	nt
NCC1O[C@@H](OC2C(N)C[C@H](N)[C@@H](O[C@H]3OC(CO)C(O)C(N)C3O)C2O)C(O)C(O)C1O (some centres not stated)	-35%[2.33 µM]	-3%	17%	nt	nt	7%
COC(=O)c1ccc2c(c1)N(CC(=O)Nc1cccc(Cl)c1C)C(=O)c1ccccc1S2	2%[59 µM]	nt	nt	-12%	4%[46 µM]	nt

Source: PubChem BioAssay
